From patent US20100004289A1, “SUBSTITUTED BUTYROPHENONE DERIVATIVES” (priority 2005, published 2010) come the findings set out here.

This series has as its target T1, HERG channel receptor (Rattus norvegicus, UniProt O08962).
T1 sequence (O08962 1-1163): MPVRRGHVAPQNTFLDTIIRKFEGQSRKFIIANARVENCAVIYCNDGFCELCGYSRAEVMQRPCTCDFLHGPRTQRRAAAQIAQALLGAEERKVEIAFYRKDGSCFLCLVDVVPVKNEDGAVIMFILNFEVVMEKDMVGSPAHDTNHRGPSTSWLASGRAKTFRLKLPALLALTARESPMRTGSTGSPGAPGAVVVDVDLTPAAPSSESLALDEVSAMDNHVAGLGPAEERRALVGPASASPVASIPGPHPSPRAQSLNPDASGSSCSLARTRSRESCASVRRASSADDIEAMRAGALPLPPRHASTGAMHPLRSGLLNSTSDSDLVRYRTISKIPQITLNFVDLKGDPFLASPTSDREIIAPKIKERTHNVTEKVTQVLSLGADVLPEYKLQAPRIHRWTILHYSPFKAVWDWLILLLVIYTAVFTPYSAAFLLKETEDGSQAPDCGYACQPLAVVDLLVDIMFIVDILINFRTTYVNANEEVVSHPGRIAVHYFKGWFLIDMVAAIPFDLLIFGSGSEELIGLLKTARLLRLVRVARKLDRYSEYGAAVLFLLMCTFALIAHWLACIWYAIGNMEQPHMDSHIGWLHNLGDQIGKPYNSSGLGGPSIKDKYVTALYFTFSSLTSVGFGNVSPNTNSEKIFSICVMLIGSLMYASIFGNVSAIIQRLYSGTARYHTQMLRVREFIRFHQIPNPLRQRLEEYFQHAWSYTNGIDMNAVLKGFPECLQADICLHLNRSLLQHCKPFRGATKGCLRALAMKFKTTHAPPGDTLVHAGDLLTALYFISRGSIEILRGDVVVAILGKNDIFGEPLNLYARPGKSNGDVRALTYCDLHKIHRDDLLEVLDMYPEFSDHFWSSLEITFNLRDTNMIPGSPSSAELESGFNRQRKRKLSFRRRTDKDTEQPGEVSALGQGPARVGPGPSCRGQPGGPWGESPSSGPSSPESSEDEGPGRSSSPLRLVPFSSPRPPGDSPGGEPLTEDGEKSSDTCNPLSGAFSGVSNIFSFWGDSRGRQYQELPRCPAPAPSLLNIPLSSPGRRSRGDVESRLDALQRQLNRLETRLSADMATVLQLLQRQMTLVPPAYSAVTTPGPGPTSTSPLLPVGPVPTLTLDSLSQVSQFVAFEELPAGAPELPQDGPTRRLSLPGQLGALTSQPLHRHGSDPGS
As to the kind of experiment: Competitive binding at HERG channel ([3H]dofetilide). The note with it: read-out: Kd of radioligand at HERG channel receptor; rat striatal tissue.

Broadly, the Kd is the concentration at which binding is half-saturated. On to [3H]dofetilide [reference compound], for which the dissociation constant Kd was found to be 5 nM.
